# Laboratory results taken from paper doi:10.1101/2024.06.03.596960 (bioRxiv, 2024).
# By UniProt entry, the sequences of proteins in these tests, tags left out. Where a name states a change or a piece, a line headed by the entry shows the natural chain unless it says otherwise. Residues count along the entry.
# UniProt P63208, 2-163, chain 1 of 2: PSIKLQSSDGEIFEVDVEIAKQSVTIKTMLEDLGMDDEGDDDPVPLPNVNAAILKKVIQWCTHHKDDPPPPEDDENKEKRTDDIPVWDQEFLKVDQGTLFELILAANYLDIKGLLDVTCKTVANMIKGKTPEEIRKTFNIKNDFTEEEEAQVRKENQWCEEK
# UniProt O14867: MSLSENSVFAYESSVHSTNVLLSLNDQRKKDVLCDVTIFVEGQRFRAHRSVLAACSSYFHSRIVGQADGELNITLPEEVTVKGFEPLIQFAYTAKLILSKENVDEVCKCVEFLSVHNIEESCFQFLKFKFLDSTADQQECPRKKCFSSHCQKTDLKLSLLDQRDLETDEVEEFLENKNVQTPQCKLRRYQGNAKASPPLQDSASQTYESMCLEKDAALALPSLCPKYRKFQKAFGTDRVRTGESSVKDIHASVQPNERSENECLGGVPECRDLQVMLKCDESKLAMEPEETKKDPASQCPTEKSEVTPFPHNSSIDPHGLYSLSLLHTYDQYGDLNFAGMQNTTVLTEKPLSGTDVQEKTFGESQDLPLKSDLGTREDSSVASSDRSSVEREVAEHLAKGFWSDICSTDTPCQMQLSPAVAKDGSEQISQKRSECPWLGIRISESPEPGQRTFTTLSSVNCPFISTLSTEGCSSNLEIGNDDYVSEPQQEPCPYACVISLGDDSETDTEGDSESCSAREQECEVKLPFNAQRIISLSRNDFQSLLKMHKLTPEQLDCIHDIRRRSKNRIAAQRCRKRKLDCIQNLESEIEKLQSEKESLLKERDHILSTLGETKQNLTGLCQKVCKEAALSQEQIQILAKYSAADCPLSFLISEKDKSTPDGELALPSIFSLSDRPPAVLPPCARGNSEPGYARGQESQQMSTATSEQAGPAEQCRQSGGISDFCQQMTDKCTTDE
# Columns and labels:
# [1] = target: biotinylated ^AviSKP1-FBXO22(12-403) (UniProt P63208); assay: BLI
# [2] = target: biotinylated ^AviSKP1-FBXO22(12-403) (UniProt P63208); assay: SPR
substance,measurement,setting,value
"BACH1 BTB domain (residues 7-128), wild type, tag-free (from UniProt O14867 7-128) (domain or fragment)",koff,[1],0.0033 s⁻¹
same,kon,[1],270000 M⁻¹ s⁻¹
same,koff,[2],0.003 s⁻¹
same,kon,[2],510000 M⁻¹ s⁻¹
